Antibody variant affinities, Ab-14 light chain, assay B

Values reported by Li et al. 2023, doi:10.1038/s41467-023-39022-2 (FLAb copy).

The target is the same throughout: PDVDLGDISGINAS, from the HR2 region of SARS-CoV-2 spike.

Parent scFv Ab-14: VH joined to VL by a 15-residue (Gly4Ser)3 linker. Changes lie in the light chain CDRs alone.
VH: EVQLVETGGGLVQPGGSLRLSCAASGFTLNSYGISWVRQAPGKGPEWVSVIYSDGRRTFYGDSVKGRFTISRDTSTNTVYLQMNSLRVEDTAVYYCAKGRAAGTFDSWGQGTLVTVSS
VL: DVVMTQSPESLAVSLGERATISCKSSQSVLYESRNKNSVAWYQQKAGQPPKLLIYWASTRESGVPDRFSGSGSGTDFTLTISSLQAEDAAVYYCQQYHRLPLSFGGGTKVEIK

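This is the validation round: designs drawn from the data on random variants, tested in the same kind of assay. Their group label is 14L_GP_Gibbs (GP: Gaussian process model; Gibbs: Gibbs sampling; a sequence that several methods proposed may carry one label only). AlphaSeq pools MATa yeast showing the antibodies with MATalpha yeast showing the peptide. The frequency of each diploid, read from paired DNA barcodes, reflects how well the two displayed proteins bind. A regression on co-assayed BCL2-family reference pairs converts the normalised counts of each replicate to an apparent Kd. Mating was done six times.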

Variants are written as CDR1, CDR2 and CDR3 of the light chain (limits as in the source). Parent: KSSQSVLYESRNKNSVA, WASTRES, QQYHRLPLS.
Affinities are written as log10 Kd with Kd in nM; a lower number is a better binder.
Where no diploid with the target was found in that replicate, the entry reads "ND": below detection, most likely a poor binder, though not proof of it.
The range of this assay differs from that of the first round, and the authors advise against merging the two.
The parent sequence was in this pool as ten entries: three were never detected, three once, and four in most replicates, with averages from 0.34 to 2.37.
As a blank, each scFv also met three strains without target: over all light chain designs, 4% of these pairings were detected, typically at 2.64 and seldom below 1.59. Also given: how often the same scFv was detected with the empty control strains, with their mean in brackets.
The authors' rule: three or more of the six replicates give a measured affinity, fewer mean a poor binder.

CDR-L1 | CDR-L2 | CDR-L3 | replicates, log10 nM | control signals
KSSQSVEMESRNSNSVA | DASTRES | QQYHRLPLS | 0.37 / -0.03 / 0.04 / 0.03 / -0.07 / -0.19 | 1 of 18 (2.28)
KMPQSVLYEQRNSNSVA | NGSTRFS | QQYHRLPLS | -0.11 / -0.45 / -0.21 / -0.15 / -0.19 / -0.28 | 0 of 18
KVSMSQLYEWRNFNSVA | NASTREE | QQYHRLPLS | -0.07 / -0.27 / -0.31 / -0.32 / -0.17 / -0.12 | 2 of 18 (3.56)
KLQFGVLYESRNKNSVA | GASTRES | QAYHRLPLS | -0.08 / 0.27 / -0.03 / -0.35 / -0.37 / 0.20 | 1 of 18 (2.18)
KVSSSVNYGQRNKNSVA | DASQRES | QQYHRLPLS | -0.62 / -0.61 / -0.97 / -0.66 / -0.76 / -0.40 | 0 of 18
ILQQSMWYESRNKNSVA | DASVRED | QQYHRLPLS | 1.21 / 1.79 / 1.55 / 0.91 / ND / 0.88 | 0 of 18
KQSQSDGGEQRNKNSVA | EASTRCE | QQYHRLPLS | -0.24 / -0.11 / -0.31 / -0.45 / -0.44 / -0.20 | 0 of 18
KSECSEPYDSPNSNSVA | NASQRER | QQYHRLPLS | 0.71 / 0.94 / 0.90 / 0.96 / 0.59 / 1.17 | 0 of 18
KQSMSVMMGSRNKNSVA | SAHKRES | QQYHRLPLS | 1.29 / ND / 1.66 / 1.17 / 1.56 / 1.87 | 1 of 18 (1.20)
KLEMSVQMESRNKNSVA | NASTRER | QQYHRLPLS | -0.20 / -0.25 / -0.25 / -0.24 / 0.00 / 0.24 | 0 of 18
KVSAQVEYQERNINSVA | EASQRES | QQYHRLPLS | 0.24 / 0.28 / 0.35 / -0.22 / 0.19 / 0.27 | 2 of 18 (2.99)
KMSQSQLYETRNKNSVA | NASTRES | QQYHRLPLS | -0.05 / -0.01 / -0.10 / -0.34 / -0.22 / -0.17 | 1 of 18 (2.62)
KMSQSQEYESRNINSVA | NASTRLT | QQYHRLPLS | 0.16 / -0.24 / -0.23 / -0.18 / -0.07 / 0.10 | 0 of 18
KLRFSVMGESRNKNSVA | SASTRES | QQYHRLPLS | 0.28 / 0.48 / 0.71 / 0.52 / 0.58 / 0.60 | 1 of 18 (2.35)
KLDFLGPYEQRNKNSVA | SASLRES | QQYHRLPLS | -0.18 / -0.35 / -0.49 / -0.59 / -0.49 / -0.32 | 1 of 18 (3.44)
KLSQSVLYQMQLKNSVA | NAQTRMS | QQYHRLPLS | 0.21 / 0.27 / 0.00 / -0.10 / -0.08 / 0.18 | 1 of 18 (2.03)
KWQQSDDMESRNHNSVA | HASTRCS | QQYHRLPLS | 0.54 / 0.82 / 0.53 / 0.61 / 0.64 / 0.74 | 1 of 18 (3.42)
KLSPSWLYEERNDNSVA | NASQRES | QDYHRLPLS | 0.03 / 0.32 / -0.22 / -0.22 / -0.09 / 0.32 | 1 of 18 (1.60)
KLMQSVEQEERNKNSVA | HASLREV | QAYHRLPLS | 0.49 / 1.60 / 0.32 / 0.80 / 0.69 / 0.56 | 1 of 18 (2.00)
LLSGSMQYEQRNKNSVA | DASTRES | QAYHRLPLS | 0.31 / 0.53 / 1.01 / 0.44 / 0.59 / 0.31 | 0 of 18
LLSQSVLLESRNWNAVA | QASTRMD | QQYHRLPLS | 1.31 / 0.65 / 0.84 / 0.66 / 0.74 / 0.59 | 2 of 18 (2.68)
AVSFSHLGSSRNKNSVA | EASTREQ | QQYHRLPLS | 0.30 / 0.27 / 0.29 / 0.19 / 0.30 / 0.41 | 2 of 18 (2.52)
AVQQSELYGSRNKNSVA | NASTRED | QQYHRLPLS | 0.20 / 0.09 / 0.18 / 0.02 / 0.01 / 0.11 | 1 of 18 (3.11)
KSEQLYYYGDRNKNSVA | QASTRES | QQYHRLPLS | -0.01 / 0.13 / -0.04 / -0.02 / 0.06 / 0.13 | 0 of 18
KLSQSMEYESRNSKSVA | NASTRVS | QQYHRLPLS | 0.14 / 0.20 / -0.08 / -0.02 / 0.24 / 0.14 | 2 of 18 (2.74)
KWQEGWLYESRNKNSVA | EGSTRES | QQYHRLPLS | 0.52 / 0.23 / 0.16 / 0.18 / 0.11 / 0.52 | 0 of 18
KLMQSALLESRNFNNVA | QASQREL | QQYHRLPLS | -0.16 / -0.23 / -0.24 / -0.31 / -0.28 / -0.07 | 5 of 18 (2.56)
KLSMSWPLLWRNHNSVA | SASTREQ | QQYHRLPLS | 0.30 / 0.32 / 0.39 / 0.38 / 0.30 / 0.37 | 2 of 18 (1.80)
KLQWSMLYESRNVNSVA | DASTRES | QQYHRLPLS | 1.20 / 1.18 / 0.31 / 1.45 / 1.56 / 1.26 | 0 of 18
KLQQQSLYGSRNKNSVA | EASTREQ | QQYHRLPLS | 0.26 / -0.01 / 0.20 / 0.16 / 0.29 / 0.32 | 1 of 18 (2.77)
KLSCSELYGSRNKNSVA | DASQRES | QQYHRLPLS | -0.05 / -0.38 / -0.33 / -0.55 / -0.26 / -0.24 | 3 of 18 (2.74)
KLQNSMLYESRNDNSVA | DASMRES | QQYHRLPLF | 0.52 / 0.66 / 0.13 / 0.46 / 0.49 / 0.45 | 1 of 18 (2.50)

For reference, 2 entries of the list once more:

CDR-L1 | CDR-L2 | CDR-L3 | replicates, log10 nM | control signals
KLSMSWPLLWRNHNSVA | SASTREQ | QQYHRLPLS | 0.30 / 0.32 / 0.39 / 0.38 / 0.30 / 0.37 | 2 of 18 (1.80)
KMSQSQLYETRNKNSVA | NASTRES | QQYHRLPLS | -0.05 / -0.01 / -0.10 / -0.34 / -0.22 / -0.17 | 1 of 18 (2.62)